The results in this text go back to ChEMBL document CHEMBL3352379, “Potent heterocyclic ligands for human complement c3a receptor” (J Med Chem, 2014).

The IC50 is the midpoint of a concentration-inhibition curve. A low value points to greater potency. The term EC50 denotes the concentration that produces a half-maximal response.

The source made the active and inactive calls. The calls are words filed in the database; no cut-off is given here.

Experiment [1] has as its target T1, C3a anaphylatoxin chemotactic receptor (Homo sapiens, UniProt Q16581).
T1 sequence (Q16581 whole entry): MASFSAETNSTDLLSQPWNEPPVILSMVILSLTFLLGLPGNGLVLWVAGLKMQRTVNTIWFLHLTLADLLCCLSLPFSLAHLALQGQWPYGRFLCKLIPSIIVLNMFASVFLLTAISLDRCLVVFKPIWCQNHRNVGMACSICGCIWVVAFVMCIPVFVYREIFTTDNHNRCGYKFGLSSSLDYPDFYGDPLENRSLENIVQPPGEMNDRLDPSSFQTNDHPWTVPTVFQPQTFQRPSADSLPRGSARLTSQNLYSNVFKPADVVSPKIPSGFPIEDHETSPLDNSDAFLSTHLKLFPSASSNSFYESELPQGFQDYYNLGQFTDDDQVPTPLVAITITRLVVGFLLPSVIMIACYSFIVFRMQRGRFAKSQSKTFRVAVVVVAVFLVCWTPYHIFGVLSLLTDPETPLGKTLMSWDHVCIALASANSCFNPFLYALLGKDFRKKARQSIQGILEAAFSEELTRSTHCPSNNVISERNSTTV
Nature of the experiment: Displacement of [125I]-C3a from C3AR in HMDMs by scintillation counting method. The method, boiled down:
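Intact day-7 HMDMs (1.2 × 10^6 cells mL−1) incubated 60 min at room temperature with 80 pM [125I]-C3a and competitor in 50 mM Tris, 3 mM MgCl2, 0.1 mM CaCl2, 0.5% BSA, pH 7.4. Filtered on PEI-soaked GF/B, washed with cold Tris, scintillation-counted. Nonspecific binding with 1 μM unlabeled C3a; n ≥ 3.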
For orientation: Displacement assays read how much labelled ligand stays bound in the presence of the test substance.

The target of experiment [2] is T1, C3a anaphylatoxin chemotactic receptor. Nature of the experiment: Agonist activity against C3AR in HMDMs assessed as increase in intracellular calcium release by Fluo-3 AM dye based FLIPR assay relative to 1 uM C3a.
In experiment [3] the target is T2, C3a anaphylatoxin chemotactic receptor (Homo sapiens) (UniProt Q16581).
T2 sequence (whole entry): T1 sequence (Q16581 whole entry)

In experiment [1], `N=C(N)NCCC[C@H](NC(=O)c1c[nH]c(C(c2ccccc2)c2ccccc2)n1)C(=O)O` had a half-maximal inhibitory concentration (IC50) of 7 nM. Also, in experiment [2], the EC50 worked out at 130 nM.
On to `N=C(N)NCCC[C@H](NC(=O)c1coc(C(c2ccccc2)c2ccccc2)n1)C(=O)O`, for which the pEC50 result in experiment [3] was “Active”.
In experiment [1], `N=C(N)NCCC[C@H](NC(=O)c1ccc(C(c2ccccc2)c2ccccc2)o1)C(=O)O` returned an IC50 of 55 nM.
